## Apparent affinities of Ab-14 variants for a coronavirus HR2 peptide

Source: Li et al. 2023 (doi:10.1038/s41467-023-39022-2), MIT Lincoln Laboratory and A-Alpha Bio; data file from the FLAb repository.

The target is the same throughout: PDVDLGDISGINAS, from the HR2 region of SARS-CoV-2 spike.

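The starting antibody came from a phage panning campaign against this peptide. The variants were designed computationally from a first round of random CDR variants and then made and measured. Several design methods are mixed in this list. Affinity was read by AlphaSeq, a pooled yeast mating assay with surface-displayed partners. The frequency of each diploid, read from paired DNA barcodes, reflects how well the two displayed proteins bind. The ratio of observed to expected reads was calibrated, replicate by replicate, on BCL2-family standards whose Kd was known from biolayer interferometry. Each pool was mated in six replicate cultures.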

The variants keep the heavy chain, the linker and the frameworks of Ab-14 (scFv order VH, a 15-residue (Gly4Ser)3 linker, VL).
VH: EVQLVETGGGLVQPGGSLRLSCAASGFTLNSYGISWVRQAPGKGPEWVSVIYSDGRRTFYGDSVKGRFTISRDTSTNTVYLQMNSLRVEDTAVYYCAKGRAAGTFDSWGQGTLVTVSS
VL: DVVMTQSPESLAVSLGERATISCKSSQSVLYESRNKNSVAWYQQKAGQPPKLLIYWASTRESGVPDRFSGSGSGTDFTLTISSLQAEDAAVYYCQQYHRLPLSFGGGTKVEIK

Changes read parent residue, position, new residue, counted from the first residue of the VL shown.
This list holds designs with at most six substitutions.
Kd is apparent (estimated from mating counts) and averaged on the log scale over replicates with a signal. Smaller is tighter.
An entry "no signal" has no value in the source: the pair was not observed among the diploids in any replicate. This suggests poor binding but is not conclusive.
Empty control strains, which show no peptide, gave a signal in 4% of pairings with all light chain designs; the median was 430 nM and 95% of these signals were weaker than 38 nM. No background was subtracted.

changes	Kd (apparent)	replicates with signal
S25V/Q27F/V29Y/Y31L/W56E	1.9 nM	6/6
Q27P/V29E/S33D/K36F/W56H/T59Q	1.1 nM	6/6
S25H/Q27I/V29G/K36Y/S58D	no signal	0/6
S28A/W56D/T59I	750 pM	6/6
Q27I/V29Y/K36E/W56E/S62E	1.5 nM	6/6
Y31S/E32Q/W56D	4.8 nM	6/6
S26D/Y31Q/W56N/Q96T	2.3 nM	6/6
S25V/S26R/V29T/W56M	3.2 nM	6/6
S28H/R34S/R99H	120 nM	6/6
W56A	7.8 nM	12/12
S25L/W56S/T59A	1.1 nM	6/6
S28V/V29Y/L30E/W56G	1.4 nM	6/6
S25L/W56E/S62Q/Q96D	4.8 nM	6/6
Y31Q/K36Q/W56E/S62A	1.9 nM	6/6
Q27P/V29Y/K36E/W56E/S62Q	1.6 nM	6/6
S25V/W56D/Q96D	450 pM	6/6
Y31D/E32G/S33T/R34E	5.9 nM	6/6
K24E/Y31S/W56E	2.9 nM	6/6
S25V/V29E/W56G	930 pM	6/6
E32N/N37G/W56K	no signal	0/6
S25L/V29E/W56D/E61C	540 pM	6/6
V29C/E32M/K36T/E61S	280 nM	5/6
K24Q/S25F/V29F/W56G	450 pM	6/6
S25F/N35D/W56N	780 pM	6/6
K24H/R34S/K36D/V39I/W56E	3.9 nM	6/6
K24H/Q27P/K36G/W56N/S62A	3.0 nM	6/6
S25L/S26Q/W56N/E61V	990 pM	6/6
S25V/Q27I/L30K/W56D/R99E	2.2 nM	6/6
S25Y/V29T/Y31C/W56D	800 pM	6/6
K24Y/S25L/W56N/S62M	1.1 nM	6/6
S25L/Q27C/S28V/V29Y/W56G	1.0 nM	6/6
Q27S/S28E/W56H	1.9 nM	6/6
S28A/V29Q/Y31V/W56N	810 pM	6/6
V29W/W56G/S62Q	19 nM	3/6
Q27E/Y31D/A57G	5.2 nM	6/6
S28V/V29W/W56G	700 pM	6/6
Q27A/V29F/W56G	1.4 nM	6/6
S28V/R34H/W56N/E61M	2.6 nM	6/6
Q27I/V29Y/R34V/W56E/T59Q	160 nM	1/6
Q27F/Y31L/A57D/E61W	52 nM	2/6
K24H/S25L/Q27W/S28A/W56N	1.8 nM	6/6
S26P/L30P/W56E	2.0 nM	6/6
S25L/V29Q/W56N/A57G/R60V/Q96D	1.2 nM	6/6
S25V/V29E/W56E	700 pM	6/6
S25A/V29F/K36F/W56G	1.6 nM	6/6
R34C/W56G/H98C	1.0 nM	6/6
S25V/Q27W/V29Y/Y31L/W56E	590 pM	6/6
K24C/R34K/W56Y/S62C	260 nM	3/6
S26F/R34C	56 nM	3/6
W56A/Q95N	260 nM	6/6
K24H/Q27P/W56G/S103Q	no signal	0/6
S25L/S26P/V29W/W56N/T59Q/Q96D	830 pM	6/6
S25V/S26Y/V29E/W56N	720 pM	6/6
W56S/Q96D	850 pM	6/6
S25I/L30E/N35D/W56S/S58N/E61L	3.1 nM	6/6
S25L/V29Q/W56N/T59Q/S62E	700 pM	6/6
S33Q/Q96D/P101G	no signal	0/6
S28E/W56D	670 pM	6/6
S25F/S33D/W56N/E61L	670 pM	6/6
A57D/R99G	no signal	0/6
S28D/V29E/W56A/T59W	5.5 nM	6/6
V29E/Y31T/W56D	1.6 nM	6/6
S25I/S33D/S38N/W56N/T59Q	240 pM	6/6
E32V	no signal	0/6
S25I/Y31P/W56A/Y97P/H98G	no signal	0/6
Q27I/V29Y/R34A/W56E/T59Q	1.1 nM	6/6
S25L/S33D/N35M/W56N/T59Q	4.5 nM	6/6
N37S/S38A/W56S	390 nM	5/6
W56L/R99P	no signal	0/6
S25Q/R34V/W56D	1.1 nM	6/6
S28G/L30M/W56N	1.3 nM	6/6
V29M/Y31G/K36H/W56S/Y97V	25 nM	3/6
S25N	150 nM	3/6
S25V/S26Q/V29Q/W56H	1.3 nM	6/6
Q27L/W56D	400 pM	6/6
E32D/S33E/R34M/W56A/A57G/R99N	2.9 nM	6/6

From the list, the first 7 with no signal in any replicate:

changes,Kd (apparent),replicates with signal
S25H/Q27I/V29G/K36Y/S58D,no signal,0/6
E32N/N37G/W56K,no signal,0/6
K24H/Q27P/W56G/S103Q,no signal,0/6
S33Q/Q96D/P101G,no signal,0/6
A57D/R99G,no signal,0/6
E32V,no signal,0/6
S25I/Y31P/W56A/Y97P/H98G,no signal,0/6

The authors averaged sequences with at least three values out of six and counted those with two or fewer as poor binders.
Of ten entries with the parent sequence, four were seen in most replicates (averages 2.2 nM to 240 nM), three in one and three in none, so single entries are noisy.
Where one sequence has several entries in the source, the replicates are pooled.
A sequence measured in both rounds can read differently, since the two assays cover different ranges.